The source of these data is patent publication US10912774B2, “Pyrimidine FGFR4 inhibitors” (priority 2013, dated 2021).

Common to all, as to set-up: species or system nude mice
The test system of one assay is HUH7 tumor xenografts. Kind of assay: In vivo efficacy, HUH7 hepatocellular carcinoma xenograft. The conditions noted are these: among the three models.
A further assay concerns HEP3B tumor xenografts. Kind of assay: In vivo efficacy, HEP3B hepatocellular carcinoma xenograft. The conditions noted are these: among the three models.
A further assay relates to JHH7 tumor xenografts. Kind of assay: In vivo efficacy, JHH7 hepatocellular carcinoma xenograft.

For the compound `C=CC(=O)Nc1cc(N2CCN(CC)CC2)ccc1Nc1cc(N(C)C(=O)Nc2c(Cl)c(OC)cc(OC)c2Cl)ncn1` [Compound 108, N-(2-(6-(3-(2,6-Dichloro-3,5-dimethoxyphenyl)-1-methylureido)pyrimidin-4-ylamino)-5-(4-ethylpiperazin-1-yl)-phenyl)acrylamide], the “sensitivity of the tumor model to the compound” value in the assay on HUH7 tumor xenografts was “intermediate sensitivity”; in the assay with HEP3B tumor xenografts, “most sensitive”; with JHH7 tumor xenografts (JHH7 xenograft, among the three models), “least sensitive”. Moreover, in the assay with JHH7 tumor xenografts (JHH7 xenograft, 12.5, 25 and 37.5 mg/kg), the “tumor response over all dose levels” value was “Progressive Disease in all dose levels tested”.
